Test results: IntAct's records for PubMed 23549287

B1: DNA polymerase III subunit alpha (Escherichia coli (strain K12)), P10443 (parent)
chain: MSEPRFVHLRVHSDYSMIDGLAKTAPLVKKAAALGMPALAITDFTNLCGLVKFYGAGHGAGIKPIVGADFNVQCDLLGDELTHLTVLAANNTGYQNLTLLISKAYQRGYGAAGPIIDRDWLIELNEGLILLSGGRMGDVGRSLLRGNSALVDECVAFYEEHFPDRYFLELIRTGRPDEESYLHAAVELAEARGLPVVATNDVRFIDSSDFDAHEIRVAIHDGFTLDDPKRPRNYSPQQYMRSEEEMCELFADIPEALANTVEIAKRCNVTVRLGEYFLPQFPTGDMSTEDYLVKRAKEGLEERLAFLFPDEEERLKRRPEYDERLETELQVINQMGFPGYFLIVMEFIQWSKDNGVPVGPGRGSGAGSLVAYALKITDLDPLEFDLLFERFLNPERVSMPDFDVDFCMEKRDQVIEHVADMYGRDAVSQIITFGTMAAKAVIRDVGRVLGHPYGFVDRISKLIPPDPGMTLAKAFEAEPQLPEIYEADEEVKALIDMARKLEGVTRNAGKHAGGVVIAPTKITDFAPLYCDEEGKHPVTQFDKSDVEYAGLVKFDFLGLRTLTIINWALEMINKRRAKNGEPPLDIAAIPLDDKKSFDMLQRSETTAVFQLESRGMKDLIKRLQPDCFEDMIALVALFRPGPLQSGMVDNFIDRKHGREEISYPDVQWQHESLKPVLEPTYGIILYQEQVMQIAQVLSGYTLGGADMLRRAMGKKKPEEMAKQRSVFAEGAEKNGINAELAMKIFDLVEKFAGYGFNKSHSAAYALVSYQTLWLKAHYPAEFMAAVMTADMDNTEKVVGLVDECWRMGLKILPPDINSGLYHFHVNDDGEIVYGIGAIKGVGEGPIEAIIEARNKGGYFRELFDLCARTDTKKLNRRVLEKLIMSGAFDRLGPHRAALMNSLGDALKAADQHAKAEAIGQADMFGVLAEEPEQIEQSYASCQPWPEQVVLDGERETLGLYLTGHPINQYLKEIERYVGGVRLKDMHPTERGKVITAAGLVVAARVMVTKRGNRIGICTLDDRSGRLEVMLFTDALDKYQQLLEKDRILIVSGQVSFDDFSGGLKMTAREVMDIDEAREKYARGLAISLTDRQIDDQLLNRLRQSLEPHRSGTIPVHLYYQRADARARLRFGATWRVSPSDRLLNDLRGLIGSEQVELEFD
B2: DNA polymerase III subunit epsilon (Escherichia coli (strain K12)), P03007 (parent)
chain: MSTAITRQIVLDTETTGMNQIGAHYEGHKIIEIGAVEVVNRRLTGNNFHVYLKPDRLVDPEAFGVHGIADEFLLDKPTFAEVADEFMDYIRGAELVIHNAAFDIGFMDYEFSLLKRDIPKTNTFCKVTDSLAVARKMFPGKRNSLDALCARYEIDNSKRTLHGALLDAQILAEVYLAMTGGQTSMAFAMEGETQQQQGEATIQRIVRQASKLRVVFATDEEIAAHEARLDLVQKKGGSCLWRA

Variants of: B1
Settings: with dpo3b_ecoli dnaN

| Variant | effect of a mutation on the interaction |
| --- | --- |
| M923A;F924A | decreasing interaction |

Variants of: B2
Settings: with dpo3b_ecoli dnaN

| Variant | effect of a mutation on the interaction |
| --- | --- |
| M185A | disrupting interaction |
| F187A | disrupting interaction |
